Some compounds may have been tested in ways that are not shown here.
Molecular target: Cys6 tagged nfnB nitroreductase (Escherichia coli, UniProt P38489)
Test: Nitroreductase UV assay (NADPH, 340 nm) with various nitro substrates
Settings: FIG. 5, 25° C.
Description: A UV assay and associated spectra were carried out on the NTR obtained at the end of Section 2.3 in solution (≅1.0 μM^(Final), 10 μl), in a cuvette with buffer tris-HCl pH 7.4 (50 mM, 500 μl), NADPH (1 mM, 100 μl), nitroaromatic compound (substrate, various conc.), and flavin mononucleotide (FMN) (1 mM, 5 μl), made up to 1 ml with distilled water at 25° C.
The spectra were collected at a scan rate of 500 nm/min between 220-500 nm resulting in 1 min scans, and the assays were run at 340 nm for 2 min each, using an Uvikon 943 double beam spectrophotometer. The parameters of the spectra and assays are as noted above unless otherwise stated. All spectral measurements were carried out against a blank consisting of the assay solution detailed above, but lacking the nitroreductase enzyme, and all assay measurements were carried out against a blank consisting of the assay solution lacking the substrate, unless otherwise stated.
The influence of the nitroreductase on a buffer solution containing 4-nitrobenzoate (625 μM) was assessed using UV-vis; the nitroreductase (10 μl) was placed in the cuvette prior to run 2.

Amino acid sequences for entries named in this document (tags omitted). Chains listed by the source or under a name are the forms on record and can include a tag or linker. Residues count along the entry.
UniProt P38489, 2-217 with tags or gaps: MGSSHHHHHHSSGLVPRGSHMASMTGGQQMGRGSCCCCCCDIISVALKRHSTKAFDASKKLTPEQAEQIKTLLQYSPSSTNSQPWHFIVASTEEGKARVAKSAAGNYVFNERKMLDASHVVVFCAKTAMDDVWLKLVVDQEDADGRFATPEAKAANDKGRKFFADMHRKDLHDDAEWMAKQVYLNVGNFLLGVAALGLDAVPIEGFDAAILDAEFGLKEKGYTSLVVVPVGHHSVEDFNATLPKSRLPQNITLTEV

Cc1ccc([N+](=O)[O-])cc1[N+](=O)[O-]
activity of Cys6 tagged nfnB nitroreductase on various substrates (substrate quality): good substrates
